This note sets out measurements from patent US11271238B2, “Applications of low-cost, thermal and electrochemically stable organic compounds as high performance redox active materials in redox flow batteries” (Utah State University, priority 2018, dated 2022).

The data set is described as follows: Aqueous solubility. The class given is physicochemical. The note with it: in H2O.

“N, N, N, 2, 2, 6, 6-Heptamethylpiperidinyloxy-4-ammonium Chloride [N^Me-TEMPO, reference compound]”: the solubility in water is 3.0 m.
